Assay results reported in patent publication US7179632B2, “Process for the production of allicin” (Neem Biotech Ltd., priority 2001, dated 2007).

Test: Solubility of alliin in water
Type: physicochemical

**Q.** For S-allyl-L-cysteine sulfoxide [Alliin], which solubility in water is on record?
**A.** Its solubility in water is “freely soluble”.
